Measured affinities in a library of Ab-14 light chain variants

All variants were tested on one target, the spike HR2 peptide PDVDLGDISGINAS (SARS-CoV-2).

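The parent was found by panning a naive human phage display library on the peptide. Designed CDR sequences, proposed from the first random library and measured here. Several design methods are mixed in this list. AlphaSeq pools MATa yeast showing the antibodies with MATalpha yeast showing the peptide. After mating in shaken culture at 30 °C for 16 h, diploids were selected and their barcode pairs sequenced. Each replicate has its own calibration line, from reference interactions of the BCL2 family. Each pool was mated in six replicate cultures.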

The variants keep the heavy chain, the linker and the frameworks of Ab-14 (scFv order VH, three GGGGS repeats, VL).
VH: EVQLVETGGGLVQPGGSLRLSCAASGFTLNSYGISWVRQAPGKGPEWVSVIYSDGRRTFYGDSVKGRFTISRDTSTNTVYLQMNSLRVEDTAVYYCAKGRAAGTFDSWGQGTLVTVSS
VL: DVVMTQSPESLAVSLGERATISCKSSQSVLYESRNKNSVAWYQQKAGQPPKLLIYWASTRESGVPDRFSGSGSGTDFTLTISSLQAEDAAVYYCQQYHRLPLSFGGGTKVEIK

Each variant is given by its three light chain CDRs, as the data file delimits them; those of the parent are KSSQSVLYESRNKNSVA, WASTRES, QQYHRLPLS. This list holds designs with at most six substitutions. Affinities are written as log10 Kd with Kd in nM; a lower number is a better binder. The mean shown is taken over the replicates in which the pair was detected. A pair that was not seen in that replicate is written "nd"; this usually means weak binding, but a binder can also be missed.

* KLSQSVLYESRVKNNVA / NASTRES / QQYHRLPLS: -0.07, -0.22, -0.34, -0.22, -0.28, -0.07 (mean -0.20; controls 1 of 18)
* KLPQSMLYESRNKNSVA / NASTREV / QQYHRLPLS: 0.11, -0.07, 0.05, -0.23, 0.02, 0.26 (mean 0.02; controls 0 of 18)
* KVSQSQLYESRNKNSVA / NASTRED / QQYHRLPLS: 0.05, -0.46, -0.13, -0.05, -0.11, 0.07 (mean -0.11; controls 0 of 18)
* KSLWSVLYESENKNSVA / HASTRED / QQYHRLPLS: 0.82, 0.69, 0.53, 0.67, 0.54, 0.76 (mean 0.67; controls 0 of 18)
* KLSQSVLYESRNKNSVA / NASTRES / QDYHRLPLM: -0.10, -0.27, -0.31, -0.05, -0.25, 0.08 (mean -0.15; controls 1 of 18)
* KSSQSVLYESRNKNSVA / WASTRER / QQYHTLPLS: nd, 2.96, nd, 1.88, 1.97, nd (mean 2.27; controls 0 of 18)
* KLSQSVGYYSRNKNSVA / WASQRES / QQYHSLPLS: 1.04, 1.26, 0.67, 0.47, 0.81, 0.93 (mean 0.87; controls 2 of 18)
* KSSQSVLYESNNKNSVA / NASTRES / QQCHRWPLS: nd, nd, nd, nd, nd, nd (controls 0 of 18)
* KLQWSMLYESRNVNSVA / DASTRES / QQYHRLPLS: 1.20, 1.18, 0.31, 1.45, 1.56, 1.26 (mean 1.16; controls 0 of 18)
* KISQSYLYESRNKNSVA / NGSTRES / QQYHRLPLS: 0.00, 0.29, 0.20, 0.05, 0.10, 0.49 (mean 0.19; controls 2 of 18)
* KSSQSVSYESLNKNSVA / WASTRES / QQYHRIPLS: nd, nd, 2.36, 1.95, nd, nd (mean 2.15; controls 0 of 18)
* KLSQSELYESRNKNSVA / QASTRLS / QQYHRLPLS: 0.08, -0.22, -0.08, -0.42, -0.14, 0.02 (mean -0.13; controls 0 of 18)
* KLSQSVLYESREKNSVA / NASTRES / QQYHRLPLS: -0.03, 0.06, -0.02, -0.15, -0.02, -0.01 (mean -0.03; controls 0 of 18)
* KSSQSVLKESNNGNSVA / WASTRES / QQYHHLPLS: 1.74, 1.07, 0.64, 1.09, 0.74, 1.46 (mean 1.12; controls 0 of 18)
* KLMQSVLYESRNKNSVA / EASTRED / QQYHRLPLS: 0.19, 0.39, 0.03, 0.06, 0.28, 0.36 (mean 0.22; controls 2 of 18)
* LSSQSVLYESRDKNSVA / WASTRES / QQYHRLPLS: 1.72, 2.04, nd, 0.81, 1.64, 2.57 (mean 1.76; controls 0 of 18)
* KVLQSVVYEQRNKNSVA / HASTRED / QQYHRLPLS: 0.39, 0.38, 0.37, 0.32, 0.41, 0.32 (mean 0.36; controls 2 of 18)
* KLSQQELYESRNKNSVA / NASTRES / QQYHRLPLS: 0.18, 0.00, -0.05, 0.18, 0.06, 0.16 (mean 0.09; controls 0 of 18)
* KSSQSVLYESRNQNSVA / WADIRES / QQYHRLPLS: 2.07, 2.10, 2.58, 2.12, 1.58, 2.10 (mean 2.09; controls 0 of 18)
* KSSWSVLYESRNKNSVA / DASTRES / QQYHRLPLS: nd, nd, nd, nd, nd, nd (controls 0 of 18)
* KCSQSVLYESRNWNSVA / WAHERES / QQYHRLPLS: 1.93, nd, 1.96, 2.27, 1.30, 2.09 (mean 1.91; controls 1 of 18)
* KVSQSVLYESRNKNSVA / NASTRMS / QQYHRLPLS: -0.02, 0.05, -0.20, -0.24, -0.32, -0.07 (mean -0.13; controls 1 of 18)
* KASQSVLYESRNSNSVA / WASTRET / QQYHRLPLW: nd, nd, nd, nd, nd, nd (controls 1 of 18)
* KLPQSHLYESRNKNSVA / HASTRES / QQYHRLPLS: 0.85, 0.27, 0.03, -0.12, 0.28, 0.20 (mean 0.25; controls 1 of 18)
* KVSQSVLYESRNKNSVA / EASTRLS / QQYHRLPLS: 0.17, 0.19, 0.08, 0.00, -0.21, 0.18 (mean 0.07; controls 2 of 18)
* KLSQSMLYESRNKNSVA / NASTRMS / QQYHRLPLS: -0.24, -0.36, -0.40, -0.55, -0.41, -0.30 (mean -0.38; controls 2 of 18)
* KSQQSVEACSRNKNSVA / AASTRES / QQYHRLPLS: 1.11, 3.04, 2.13, nd, 3.04, 2.66 (mean 2.40; controls 1 of 18)
* HLSQSVLYEDRNKNSVA / NASQRES / QQYHRLPLS: 0.46, 0.52, 0.10, 0.36, 0.41, 0.48 (mean 0.39; controls 0 of 18)
* KQSQSHLCESRNKNSVA / DASTRES / QQYHRLPLS: nd, 2.10, nd, 3.03, 1.90, 1.25 (mean 2.07; controls 0 of 18)
* KLPQQWLYESRNKNSVA / NASTRES / QQYHRLPLS: -0.02, 0.01, -0.07, 0.06, 0.03, 0.08 (mean 0.02; controls 1 of 18)
* KLQQSVEYESRNKNSVA / NASTRCS / QQYHRLPLS: 0.13, -0.11, -0.17, -0.07, -0.25, 0.03 (mean -0.07; controls 0 of 18)
* KYPQSGLYESTNKNSVA / WASTRES / QQYHRLPLS: 0.70, 0.97, 1.10, 0.65, 1.00, 0.75 (mean 0.86; controls 1 of 18)
* KSSISYLYESRNKNSVA / DASTRES / QQYHRLPLS: 0.09, -0.02, -0.12, -0.24, -0.16, 0.00 (mean -0.08; controls 2 of 18)
* KSSQSVLYESRNKNSVA / EASTRES / QQYARLPLS: 0.26, 0.21, -0.04, 0.03, 0.06, 0.30 (mean 0.14; controls 4 of 18)
* KLSQSVLGESRNKNSVA / EASTRES / QQYHRLPLS: 0.60, 0.65, 0.84, 0.92, 0.99, 0.89 (mean 0.81; controls 2 of 18)
* KLSQSVQYESRNKNSVA / WRSKRES / QQPHRTPLS: nd, nd, nd, nd, nd, nd (controls 0 of 18)
* HSSPSVYYESRNKNSVA / NASLRES / QQYHRLPLS: 0.62, 0.44, 0.22, 0.11, 0.42, 0.34 (mean 0.36; controls 4 of 18)
* KESQSVLHEWRNKNSVA / DASTRMS / QQYHRLPLS: 0.06, -0.20, 0.26, 0.02, 0.03, 0.39 (mean 0.09; controls 1 of 18)
* KVSQSDLYESRNKNSVA / EASTRES / QSYHRLPLS: 0.18, 0.11, 0.12, -0.14, 0.05, 0.20 (mean 0.09; controls 0 of 18)
* KVSQSVLYEERNKNSVA / NASTRES / QQYHRLPLS: 0.22, -0.11, -0.30, -0.32, -0.37, -0.30 (mean -0.20; controls 1 of 18)
* KSSQSKLYESRNCNSVA / QASTRES / QTYHHLPLS: nd, nd, nd, nd, nd, nd (controls 0 of 18)
* KSSQSVLYESRNKNSVA / WASTRYS / QQYHRLPNS: nd, nd, nd, nd, nd, 1.52 (controls 0 of 18)
* KVSGSELEESRNKNSVA / WASKREE / QQYHRLPLS: 1.69, nd, 2.41, nd, 3.13, 1.88 (mean 2.28; controls 0 of 18)

Again, the first 5 entries without any signal:

CDR-L1,CDR-L2,CDR-L3,log10 Kd (nM) by replicate,mean log10 Kd (nM),signal with controls
KSSQSVLYESNNKNSVA,NASTRES,QQCHRWPLS,"nd, nd, nd, nd, nd, nd",nd,0/18
KSSWSVLYESRNKNSVA,DASTRES,QQYHRLPLS,"nd, nd, nd, nd, nd, nd",nd,0/18
KASQSVLYESRNSNSVA,WASTRET,QQYHRLPLW,"nd, nd, nd, nd, nd, nd",nd,1/18
KLSQSVQYESRNKNSVA,WRSKRES,QQPHRTPLS,"nd, nd, nd, nd, nd, nd",nd,0/18
KSSQSKLYESRNCNSVA,QASTRES,QTYHHLPLS,"nd, nd, nd, nd, nd, nd",nd,0/18

Three control strains display no target. For all light chain designs, 4% of the pairings with them gave a signal, with a median of 2.64 and one signal in twenty below 1.59, so weak values seen in few replicates may be background. Also given: how often the same scFv was detected with the empty control strains. A sequence measured in both rounds can read differently, since the two assays cover different ranges. In the paper, a design with two or fewer of six values counts as a poor binder.

Reference: Li et al. 2023, doi:10.1038/s41467-023-39022-2. File: FLAb, binding data.